Measurements as given in ChEMBL document CHEMBL2396616, “Development and characterization of a promising fluorine-18 labelled radiopharmaceutical for in vivo imaging of fatty acid amide hydrolase” (Bioorg Med Chem, 2013).
Activity calls are given as the source filed them. The calls are words filed in the database; no cut-off is given here.

Chains of the proteins cited; added tags and fusions are not shown.
UniProt P97612, whole entry: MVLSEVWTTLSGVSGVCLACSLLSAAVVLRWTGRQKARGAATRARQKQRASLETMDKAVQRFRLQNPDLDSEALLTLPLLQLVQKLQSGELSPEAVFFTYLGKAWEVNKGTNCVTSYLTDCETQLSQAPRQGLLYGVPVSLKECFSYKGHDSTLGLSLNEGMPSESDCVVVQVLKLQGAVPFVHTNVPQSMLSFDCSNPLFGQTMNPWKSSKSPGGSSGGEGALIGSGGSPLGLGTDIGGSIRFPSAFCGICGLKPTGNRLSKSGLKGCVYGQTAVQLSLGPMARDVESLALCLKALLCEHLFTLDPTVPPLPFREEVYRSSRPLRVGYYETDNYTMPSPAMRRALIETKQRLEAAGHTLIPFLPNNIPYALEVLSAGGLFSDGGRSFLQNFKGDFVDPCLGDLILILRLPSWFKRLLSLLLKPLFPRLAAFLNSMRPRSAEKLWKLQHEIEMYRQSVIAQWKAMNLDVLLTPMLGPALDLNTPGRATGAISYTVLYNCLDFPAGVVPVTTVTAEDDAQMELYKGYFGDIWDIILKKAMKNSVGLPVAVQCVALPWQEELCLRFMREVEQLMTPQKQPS

Target: Fatty-acid amide hydrolase 1 (Rattus norvegicus) (UniProt P97612)
Assay: Irreversible inhibition of FAAH in rat brain homogenates using [3H]anandamide as substrate
Assay type: tissue-based

**Q.** With O=C(NCCCCCF)Oc1cccc(C2=NCCO2)c1 as the compound, how does the inhibition read?
**A.** The inhibition was “Active”.
